Results published in PubChem BioAssay (NCATS).
The entries are a selection whose mix differs from that of the whole data set. Inconclusive results are not listed. Activity calls are given as the source filed them. Unless noted, calls follow the shape of the dose curve; as a rule, active = well fitted curve in the direction sought with a large enough effect; inconclusive = small, poorly fitted or top-dose-only effect, or another doubt; inactive = no such curve, though single readings can be large; an effect the other way counts as inactive or inconclusive.

Chains of the proteins cited; added tags and fusions are not shown. Lines headed by an entry give the natural chain unless they say otherwise; changes in a name come on top.
UniProt P03372, whole entry, looked up: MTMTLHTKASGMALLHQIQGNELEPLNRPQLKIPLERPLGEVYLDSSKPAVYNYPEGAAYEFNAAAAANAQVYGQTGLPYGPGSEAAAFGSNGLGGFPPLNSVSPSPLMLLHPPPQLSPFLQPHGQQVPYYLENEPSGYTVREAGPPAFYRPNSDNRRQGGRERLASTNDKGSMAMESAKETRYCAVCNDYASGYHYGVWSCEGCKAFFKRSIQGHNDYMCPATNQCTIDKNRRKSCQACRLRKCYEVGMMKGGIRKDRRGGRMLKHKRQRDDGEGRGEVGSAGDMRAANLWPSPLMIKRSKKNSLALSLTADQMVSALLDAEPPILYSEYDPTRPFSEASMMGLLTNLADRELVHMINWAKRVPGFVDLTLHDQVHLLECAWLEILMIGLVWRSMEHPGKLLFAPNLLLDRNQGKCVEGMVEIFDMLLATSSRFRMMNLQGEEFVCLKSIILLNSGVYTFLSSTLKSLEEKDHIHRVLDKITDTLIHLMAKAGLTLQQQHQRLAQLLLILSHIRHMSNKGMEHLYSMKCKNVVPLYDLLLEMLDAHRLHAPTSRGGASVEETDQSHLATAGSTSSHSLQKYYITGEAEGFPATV
UniProt Q03181: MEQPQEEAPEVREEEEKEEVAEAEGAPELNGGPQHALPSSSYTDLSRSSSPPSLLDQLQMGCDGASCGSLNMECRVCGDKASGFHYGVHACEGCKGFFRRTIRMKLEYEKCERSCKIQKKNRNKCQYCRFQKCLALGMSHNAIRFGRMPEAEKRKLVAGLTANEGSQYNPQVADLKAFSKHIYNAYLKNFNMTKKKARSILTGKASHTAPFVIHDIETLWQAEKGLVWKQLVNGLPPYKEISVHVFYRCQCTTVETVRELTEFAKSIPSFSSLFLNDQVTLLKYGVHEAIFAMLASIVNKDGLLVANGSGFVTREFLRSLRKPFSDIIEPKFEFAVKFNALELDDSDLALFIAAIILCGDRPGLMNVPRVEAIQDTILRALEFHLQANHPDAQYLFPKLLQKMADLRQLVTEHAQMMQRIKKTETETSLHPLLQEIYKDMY
UniProt P19793: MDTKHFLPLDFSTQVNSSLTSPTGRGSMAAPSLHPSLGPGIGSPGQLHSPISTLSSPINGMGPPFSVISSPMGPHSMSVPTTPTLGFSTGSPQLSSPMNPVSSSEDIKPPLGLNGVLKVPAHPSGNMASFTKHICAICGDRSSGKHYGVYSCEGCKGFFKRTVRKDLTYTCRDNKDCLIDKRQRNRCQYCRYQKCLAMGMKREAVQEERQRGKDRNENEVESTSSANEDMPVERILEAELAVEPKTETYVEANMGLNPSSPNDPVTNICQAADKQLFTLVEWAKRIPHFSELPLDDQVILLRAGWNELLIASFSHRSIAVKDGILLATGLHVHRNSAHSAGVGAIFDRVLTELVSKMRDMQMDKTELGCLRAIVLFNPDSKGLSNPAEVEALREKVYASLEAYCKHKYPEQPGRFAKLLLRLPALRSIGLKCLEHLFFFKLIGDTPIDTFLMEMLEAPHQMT
UniProt P10828: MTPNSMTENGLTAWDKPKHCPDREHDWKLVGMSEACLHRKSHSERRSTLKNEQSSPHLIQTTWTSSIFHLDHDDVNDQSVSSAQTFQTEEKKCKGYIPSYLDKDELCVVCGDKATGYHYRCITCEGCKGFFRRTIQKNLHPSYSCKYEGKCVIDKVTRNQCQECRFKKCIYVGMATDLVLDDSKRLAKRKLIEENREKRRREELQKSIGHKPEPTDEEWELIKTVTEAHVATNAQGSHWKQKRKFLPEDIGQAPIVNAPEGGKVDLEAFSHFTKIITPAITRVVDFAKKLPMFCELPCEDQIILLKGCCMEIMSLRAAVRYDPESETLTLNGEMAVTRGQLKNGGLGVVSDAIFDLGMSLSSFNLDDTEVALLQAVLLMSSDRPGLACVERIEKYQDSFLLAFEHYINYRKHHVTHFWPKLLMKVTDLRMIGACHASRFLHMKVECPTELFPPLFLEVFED
UniProt Q07869: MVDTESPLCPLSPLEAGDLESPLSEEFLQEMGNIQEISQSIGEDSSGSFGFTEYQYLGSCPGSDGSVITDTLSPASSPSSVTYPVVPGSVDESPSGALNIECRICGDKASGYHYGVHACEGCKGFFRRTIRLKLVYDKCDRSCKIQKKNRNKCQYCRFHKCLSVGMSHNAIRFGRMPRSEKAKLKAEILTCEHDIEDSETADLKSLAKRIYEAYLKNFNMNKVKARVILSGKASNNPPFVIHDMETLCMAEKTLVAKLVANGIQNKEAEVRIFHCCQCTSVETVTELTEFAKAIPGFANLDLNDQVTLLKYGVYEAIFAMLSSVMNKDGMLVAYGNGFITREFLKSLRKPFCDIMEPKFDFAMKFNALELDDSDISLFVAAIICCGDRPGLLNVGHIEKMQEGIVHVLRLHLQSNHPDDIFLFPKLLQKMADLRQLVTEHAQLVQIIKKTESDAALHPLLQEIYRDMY
UniProt Q9R1A7: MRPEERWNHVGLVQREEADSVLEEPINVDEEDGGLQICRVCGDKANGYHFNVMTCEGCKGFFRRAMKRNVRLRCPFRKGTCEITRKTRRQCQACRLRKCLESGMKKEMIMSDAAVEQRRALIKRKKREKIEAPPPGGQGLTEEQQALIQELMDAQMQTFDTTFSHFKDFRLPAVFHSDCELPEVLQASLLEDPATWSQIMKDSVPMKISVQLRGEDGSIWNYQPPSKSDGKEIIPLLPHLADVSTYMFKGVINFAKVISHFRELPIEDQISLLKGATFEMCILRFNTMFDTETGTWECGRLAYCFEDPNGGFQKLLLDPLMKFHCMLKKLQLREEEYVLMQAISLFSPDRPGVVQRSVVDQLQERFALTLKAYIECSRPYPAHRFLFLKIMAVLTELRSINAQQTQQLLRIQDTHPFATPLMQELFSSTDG
UniProt Q07343: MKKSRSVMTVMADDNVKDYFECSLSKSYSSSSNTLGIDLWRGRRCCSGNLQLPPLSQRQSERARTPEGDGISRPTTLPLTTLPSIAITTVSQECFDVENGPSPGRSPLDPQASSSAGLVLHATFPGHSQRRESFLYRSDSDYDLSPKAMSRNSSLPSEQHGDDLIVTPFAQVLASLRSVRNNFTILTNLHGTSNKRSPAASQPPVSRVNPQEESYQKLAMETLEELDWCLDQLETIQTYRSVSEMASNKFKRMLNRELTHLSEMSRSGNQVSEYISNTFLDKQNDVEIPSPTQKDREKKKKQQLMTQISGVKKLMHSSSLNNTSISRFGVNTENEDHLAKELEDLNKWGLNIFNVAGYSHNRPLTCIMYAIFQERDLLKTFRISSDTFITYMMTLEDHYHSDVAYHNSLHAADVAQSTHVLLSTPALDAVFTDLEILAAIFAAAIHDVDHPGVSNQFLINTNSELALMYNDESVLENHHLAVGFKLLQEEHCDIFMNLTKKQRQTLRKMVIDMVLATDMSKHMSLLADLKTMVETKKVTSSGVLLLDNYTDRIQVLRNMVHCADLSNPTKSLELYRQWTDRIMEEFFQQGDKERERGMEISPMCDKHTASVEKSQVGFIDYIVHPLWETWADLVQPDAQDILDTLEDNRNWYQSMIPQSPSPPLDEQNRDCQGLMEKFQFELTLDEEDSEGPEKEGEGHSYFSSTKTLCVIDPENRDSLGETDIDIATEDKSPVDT
UniProt P63096, whole entry, looked up: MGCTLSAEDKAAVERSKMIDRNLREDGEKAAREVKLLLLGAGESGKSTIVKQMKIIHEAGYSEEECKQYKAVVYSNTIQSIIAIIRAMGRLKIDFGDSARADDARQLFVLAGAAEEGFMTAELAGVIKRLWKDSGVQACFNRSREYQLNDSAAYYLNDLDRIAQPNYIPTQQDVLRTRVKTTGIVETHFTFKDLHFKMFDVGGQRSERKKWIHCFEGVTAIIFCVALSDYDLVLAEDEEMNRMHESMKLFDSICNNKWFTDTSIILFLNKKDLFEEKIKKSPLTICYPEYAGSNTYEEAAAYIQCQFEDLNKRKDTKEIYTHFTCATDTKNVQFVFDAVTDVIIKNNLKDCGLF
UniProt P08482: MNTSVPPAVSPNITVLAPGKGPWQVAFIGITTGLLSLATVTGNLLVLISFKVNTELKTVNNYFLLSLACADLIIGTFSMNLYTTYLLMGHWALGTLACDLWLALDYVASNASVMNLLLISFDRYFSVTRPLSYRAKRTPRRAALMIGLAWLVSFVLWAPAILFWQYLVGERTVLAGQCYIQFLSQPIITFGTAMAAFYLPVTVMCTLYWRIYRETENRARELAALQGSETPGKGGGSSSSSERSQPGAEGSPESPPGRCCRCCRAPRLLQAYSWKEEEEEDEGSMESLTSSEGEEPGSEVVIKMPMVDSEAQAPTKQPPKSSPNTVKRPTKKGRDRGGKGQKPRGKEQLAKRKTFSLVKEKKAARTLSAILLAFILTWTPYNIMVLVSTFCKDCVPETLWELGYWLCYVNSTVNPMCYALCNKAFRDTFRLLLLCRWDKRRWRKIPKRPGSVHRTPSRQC
UniProt P14618, whole entry, looked up: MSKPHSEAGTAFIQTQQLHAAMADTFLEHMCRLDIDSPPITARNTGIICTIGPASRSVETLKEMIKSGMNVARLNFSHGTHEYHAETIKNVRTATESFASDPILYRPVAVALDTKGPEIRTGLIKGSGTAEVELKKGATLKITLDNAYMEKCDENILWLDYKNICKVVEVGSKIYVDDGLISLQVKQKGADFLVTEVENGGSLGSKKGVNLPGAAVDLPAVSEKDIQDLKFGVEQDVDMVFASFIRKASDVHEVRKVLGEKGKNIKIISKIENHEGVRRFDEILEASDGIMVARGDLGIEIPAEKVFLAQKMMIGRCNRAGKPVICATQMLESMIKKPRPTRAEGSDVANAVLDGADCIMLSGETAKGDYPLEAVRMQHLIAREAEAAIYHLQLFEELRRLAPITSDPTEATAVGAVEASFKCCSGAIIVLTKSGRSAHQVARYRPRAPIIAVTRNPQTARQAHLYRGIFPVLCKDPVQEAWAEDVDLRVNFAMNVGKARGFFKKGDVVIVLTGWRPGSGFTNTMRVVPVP
UniProt P06280: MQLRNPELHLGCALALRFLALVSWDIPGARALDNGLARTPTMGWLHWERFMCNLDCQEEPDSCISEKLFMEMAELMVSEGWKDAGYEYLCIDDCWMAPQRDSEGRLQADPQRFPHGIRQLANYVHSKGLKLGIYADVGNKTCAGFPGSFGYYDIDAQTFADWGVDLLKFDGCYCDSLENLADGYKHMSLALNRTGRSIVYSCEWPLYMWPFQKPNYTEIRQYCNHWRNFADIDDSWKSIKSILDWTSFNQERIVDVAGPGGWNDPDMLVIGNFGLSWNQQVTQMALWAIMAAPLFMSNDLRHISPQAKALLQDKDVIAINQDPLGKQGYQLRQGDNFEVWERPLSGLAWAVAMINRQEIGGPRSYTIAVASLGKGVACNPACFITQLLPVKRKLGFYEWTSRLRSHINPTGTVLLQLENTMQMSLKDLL
UniProt P08684, whole entry, looked up: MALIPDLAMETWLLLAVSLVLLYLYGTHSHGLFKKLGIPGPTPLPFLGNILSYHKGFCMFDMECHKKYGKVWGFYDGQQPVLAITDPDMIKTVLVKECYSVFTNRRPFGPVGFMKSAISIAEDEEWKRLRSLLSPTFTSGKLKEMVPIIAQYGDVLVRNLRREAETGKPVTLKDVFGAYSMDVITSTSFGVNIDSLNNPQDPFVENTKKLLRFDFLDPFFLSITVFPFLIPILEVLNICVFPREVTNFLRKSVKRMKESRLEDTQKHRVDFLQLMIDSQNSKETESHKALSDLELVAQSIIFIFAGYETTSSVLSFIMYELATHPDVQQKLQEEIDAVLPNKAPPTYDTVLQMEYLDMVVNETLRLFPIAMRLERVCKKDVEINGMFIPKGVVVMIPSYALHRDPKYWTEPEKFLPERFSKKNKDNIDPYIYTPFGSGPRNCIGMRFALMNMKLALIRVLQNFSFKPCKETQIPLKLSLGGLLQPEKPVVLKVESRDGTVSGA

Columns and labels:
[1] = biological target: Estrogen receptor (Homo sapiens) (UniProt P03372); assay: qHTS assay for small molecule agonists of estrogen receptor alpha signaling (AID 588514; calls by dose curve;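 also: 0% = vehicle only and 100% = reference agonist; nearly all actives have a fitted effect of over 70% in size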); conditions: ER-alpha-UAS-bla HEK293, beta-lactamase ratio, 18 h, percent of full estradiol response, vehicle zero; at 76.8 µM (top of the series)
[2] = biological target: Glucocorticoid receptor (Homo sapiens) (UniProt P04150); assay: qHTS assay for small molecule agonists of glucocorticoid receptor signaling (AID 588532; active = well fitted curve in the direction sought with a large enough effect in the signal ratio, with a control signal flat; the % refers to the signal ratio;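 also: 100% = dexamethasone at 0.1 µM and 0% = DMSO only wells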); conditions: HeLa MMTV-bla, beta-lactamase ratio, agonist, 18 h; stronger effect = higher value
[3] = biological target: Glucocorticoid receptor (Homo sapiens) (UniProt P04150); assay: qHTS assay for small molecule antagonists of glucocorticoid receptor signaling (AID 588533; active = well fitted inhibition curve with a large enough effect in the signal ratio, with a control signal flat, not every such curve was filed as active; the % refers to the signal ratio; also: % is scaled to controls: 0 for no effect and ±100 for the full control effect); conditions: HeLa MMTV-bla, GRE beta-lactamase ratio, antagonist mode, 18 h; at 76.8 µM (top of the series)
[4] = biological target: Peroxisome proliferator-activated receptor delta (Homo sapiens) (UniProt Q03181); assay: qHTS assay for small molecule agonists of peroxisome proliferator-activated receptor delta signaling (AID 588534; calls by dose curve;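 also: 0% = DMSO basal wells and 100% = positive control agonist at 10 µM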); conditions: HEK293T PPARdelta-UAS-bla, beta-lactamase ratio, 18 h; at 76.7 µM (top of the series)
[5] = biological target: Peroxisome proliferator-activated receptor delta (Homo sapiens) (UniProt Q03181); assay: qHTS assay for small molecule antagonists of peroxisome proliferator-activated receptor delta signaling (AID 588535; active = well fitted inhibition curve with a large enough effect in the signal ratio, with a control signal flat, not every such curve was filed as active; the % refers to the signal ratio); conditions: HEK293T PPARd-UAS-bla, beta-lactamase FRET ratio, 18 h; at 76.7 µM (top of the series)
[6] = biological target: Peroxisome proliferator-activated receptor gamma (Homo sapiens) (UniProt P37231); assay: qHTS assay for small molecule agonists of peroxisome proliferator-activated receptor gamma signaling (AID 588536; active = well fitted curve in the direction sought with a large enough effect in the signal ratio, with a control signal flat, not every such curve was filed as active; the % refers to the signal ratio;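 also: 0% = DMSO basal wells and 100% = rosiglitazone at 2 µM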); conditions: HEK293 PPARg-UAS-bla, beta-lactamase ratio, 16 h, percent of rosiglitazone response, DMSO as zero; at 76.7 µM (top of the series)
[7] = biological target: Peroxisome proliferator-activated receptor gamma (Homo sapiens) (UniProt P37231); assay: qHTS assay for small molecule antagonists of peroxisome proliferator-activated receptor gamma signaling (AID 588537; active = well fitted inhibition curve with a large enough effect in the signal ratio, with a control signal flat, not every such curve was filed as active; the % refers to the signal ratio;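 also: reporter cells co-stimulated with 50 nM rosiglitazone agonist during compound treatment; % of control where 0% means no effect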); conditions: HEK293 PPARg-UAS-bla, beta-lactamase ratio, antagonist mode; at 76.8 µM (top of the series)
Summary of the method: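 PPARγ-UAS-bla HEK293 cells (3000/well) in 1% charcoal/dextran-stripped FBS are treated with compound, then stimulated with 50 nM rosiglitazone for 16 h at 37 °C. Read-out is CCF4 β-lactamase fluorescence after 2 h at RT. IC50 comes from Hill fits normalised to rosiglitazone and DMSO.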

[8] = biological target: Vitamin D3 receptor (Homo sapiens) (UniProt P11473); assay: qHTS assay for small molecule antagonists of vitamin D receptor signaling (AID 588541; calls by dose curve;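 also: receptor activated by calcitriol during compound treatment; % is scaled to controls: 0 for no effect and ±100 for the full control effect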); conditions: HEK293T VDR-UAS-bla, beta-lactamase ratio, antagonist mode; at 76.7 µM (top of the series)
Summary of the method: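 VDR-UAS-bla HEK293T cells in 2% charcoal-stripped FBS were stimulated with 1-alpha,25-dihydroxyvitamin D3 (3 nM final) plus compound for 16 h at 37 C. The beta-lactamase CCF4 readout was normalized to 50 nM agonist and DMSO, and Hill fits gave IC50.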

[9] = biological target: Vitamin D3 receptor (Homo sapiens) (UniProt P11473); assay: qHTS assay for small molecule agonists of vitamin D receptor signaling (AID 588543; calls by dose curve;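 also: 0% = DMSO basal and 100% = reference agonist control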); conditions: HEK293T VDR-UAS-bla, beta-lactamase ratio, 16 h; at 76.8 µM (top of the series)
Summary of the method: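 β-lactamase reporter, VDR-UAS-bla HEK293T, agonist mode. Cells plated 5 h at 37 °C, compound titration 16 h at 37 °C, CCF4 dye 2 h RT, ratio 460/530 nm. Hill fit → EC50, efficacy vs 50 nM 1α,25-(OH)2D3.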

[10] = biological target: Retinoic acid receptor RXR-alpha (Homo sapiens) (UniProt P19793); assay: qHTS assay for small molecule agonists of retinoid X receptor alpha signaling (AID 588544; calls by dose curve;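 also: 0% = DMSO basal wells and 100% = reference agonist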); conditions: HEK293T RXRa-UAS-bla, beta-lactamase reporter, 18 h; at 76.7 µM (top of the series)
[11] = biological target: Retinoic acid receptor RXR-alpha (Homo sapiens) (UniProt P19793); assay: qHTS assay for small molecule antagonists of retinoid X receptor alpha signaling (AID 588546; active = well fitted inhibition curve with a large enough effect in the signal ratio, with a control signal flat, not every such curve was filed as active; the % refers to the signal ratio;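 also: cells stimulated with 9-cis-retinoic acid as agonist; % is scaled to controls: 0 for no effect and ±100 for the full control effect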); conditions: HEK293T RXRa-UAS-bla, beta-lactamase ratio, antagonist mode
Summary of the method: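 Beta-lactamase reporter inhibition, read as CCF4 fluorescence ratio (ex 405, em 460/530 nm) after 2 h at RT. HEK293T UAS-bla cells, 2500/well, were stimulated with 9-cis-RA at 500 or 100 nM final alongside test compound for 18 h at 37 C.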

[12] = biological target: Thyroid hormone receptor beta (Homo sapiens) (UniProt P10828); assay: qHTS assay for small molecule antagonists of thyroid hormone receptor beta signaling (AID 588547; active = well fitted inhibition curve with a large enough effect in the signal ratio, with a control signal flat, not every such curve was filed as active; the % refers to the signal ratio); conditions: TR-UAS-bla HEK293, beta-lactamase ratio, antagonist mode, 18 h; stronger effect = lower value
Summary of the method: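 TR-UAS-bla GripTite HEK293 cells in 2% charcoal/dextran FBS medium; compounds 0.59 nM to 92 uM with T3 at 0.4nM final, 18 h at 37 C. Beta-lactamase read by CCF4 fluorescence (460/530 nm); Hill fits gave IC50 and efficacy.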

[13] = qHTS assay for small molecule agonists of the antioxidant response element (ARE) signaling pathway (AID 651741; active = well fitted activation curve with a large enough effect in the signal ratio; the % refers to the signal ratio; also: % of control where 0% means no effect); conditions: HepG2 ARE-bla reporter, beta-lactamase FRET ratio, 16 h; at 96 µM (top of the series)
Summary of the method: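 CellSensor ARE-bla HepG2 cells (2,000/well) carrying ARE-driven beta-lactamase, exposed 16 h at 37 C. LiveBLAzer B/G FRET substrate added for 2 h at room temperature; fluorescence intensity read.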

[14] = qHTS assay for small molecule activators of the p53 signaling pathway (AID 651743; active = well fitted activation curve with a large enough effect in the signal ratio, not every such curve was filed as active; the % refers to the signal ratio; also: % of control where 0% means no effect); conditions: HCT-116 p53RE-bla, beta-lactamase FRET ratio, 16 h; activation: stronger effect = higher value
[15] = qHTS assay for small molecule activators of the nuclear factor-kappa B (NF-kB) signaling pathway (AID 651749; active = well fitted activation curve with a large enough effect in the signal ratio; the % refers to the signal ratio; also: % of control where 0% means no effect); conditions: NF-kB-bla ME-180 cells, beta-lactamase FRET ratio, 16 h; stronger effect = higher value
Summary of the method: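 NF-kB-bla ME-180 cells carrying a beta-lactamase reporter under an NF-kB response element, 2,000 cells/well, exposed to compound for 16 hr at 37C; FRET-based beta-lactamase fluorescence read-out of pathway activation.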

[16] = biological target: Peroxisome proliferator-activated receptor alpha (Homo sapiens) (UniProt Q07869); assay: qHTS assay for small molecule agonists of the peroxisome proliferator-activated receptor alpha (PPARalpha) signaling pathway (AID 651778); conditions: PathHunter PPARalpha complementation, chemiluminescence, 6 h; stronger effect = higher value; also: % of control where 0% means no effect
[17] = qHTS assay for small molecule agonists of the antioxidant response element (ARE) signaling pathway measured by Nrf2-dependant transcriptional activity (AID 720636; active = well fitted curve in the direction sought with a large enough effect in the repeat runs; an effect the other way counts as inactive or inconclusive;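 also: HepG2 cells with an ARE-driven luciferase reporter; % of control where 0% means no effect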); conditions: ARE-luc HepG2, Nrf2 luciferase reporter, 16 h; at 92.4 µM (top of the series)
[18] = qHTS assay for small molecule agonists of the antioxidant response element (ARE) signaling pathway measured by Nrf2-dependant transcriptional activity - cell viability counter screen (AID 720653; active = well fitted curve in the direction sought with a large enough effect in the repeat runs; an effect the other way counts as inactive or inconclusive; also: % is scaled to controls: 0 for no effect and ±100 for the full control effect); conditions: ARE-bla HepG2 viability, CellTiter-Glo ATP luminescence, 16 h; stronger effect = lower value
Summary of the method: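 ARE-bla HepG2 cells treated with compounds for 16 h at 37C; this counter screen measures viability as intracellular ATP by CellTiter-Glo luminescence after 30 min at room temperature.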

[19] = qHTS assay for cell viability of HEK293 cells (AID 743288); conditions: ATP luminescence (CellTiter-Glo), 18 h; max response: stronger effect = lower value; also: % is scaled to controls: 0 for no effect and ±100 for the full control effect; nearly all actives have a fitted effect of over 50% in size
Summary of the method: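 Environmental chemicals tested in qHTS format against parental HEK293 cells; 18 h treatment, 37 C; read-out ATP luminescence (CellTiter-Glo), 30 min RT development.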

[20] = qHTS assay for cell viability of the p53RE-bla HCT-116 cell line (AID 743292); also: % is scaled to controls: 0 for no effect and ±100 for the full control effect; nearly all actives have a fitted effect of over 55% in size
Summary of the method: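 Viability of compound-treated p53RE-bla HCT-116 cells is taken from ATP-dependent luciferase luminescence. Treatment lasts 16 h at 37 C after a 5 h settling period; detection follows 30 min at room temperature.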

[21] = biological target: Nuclear receptor subfamily 1 group I member 2 (Rattus norvegicus) (UniProt Q9R1A7); assay: qHTS assay for small molecule activators of the rat pregnane X receptor (rPXR) signaling pathway (AID 651751; call rule not given here; also: 0% is about no effect); conditions: rPXR reporter cells, luciferase (One-Glo), 24 h
[22] = qHTS assay for small molecule activators of the human pregnane X receptor (PXR) signaling pathway (AID 720659; call rule not given here; also: 0% is about no effect); conditions: DPX-2 HepG2 CYP3A4-luciferase, 24 h; at 92.3 µM (top of the series)
[23] = NFAT Signaling Pathway (AID 444; active = well fitted curve in either direction with a large enough effect, not every such curve was filed as active); conditions: Jurkat NFAT-bla M1, carbachol, beta-lactamase ratio, 5 h; at 7.69 µM (top of the series) unless noted
[24] = Stat Signaling Pathway (AID 446; active = well fitted curve in either direction with a large enough effect, not every such curve was filed as active); conditions: ME-180 SIE beta-lactamase reporter, IL-6 stimulated, 5 h; at 7.69 µM (top of the series) unless noted
Summary of the method: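 ME-180 cells carrying a SIE-driven beta-lactamase reporter are stimulated with 40 pM IL-6 for 5 h at 37C in the presence of compound. The 460/530 nm FRET substrate ratio is read after 2.5 h at RT. Data are normalised to 300 pM IL-6 and to 125 nM JAK inhibitor controls.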

[25] = biological target: 3',5'-cyclic-AMP phosphodiesterase 4B (Homo sapiens) (UniProt Q07343); assay: qHTS Assay for Inhibitors of PDE-IV (AID 607; active = well fitted activation curve with a large enough effect in the main read-out, with a control signal flat, not every such curve was filed as active; also: % of control where 0% means no effect); conditions: HEK293 ACTOne CNG channel cells, membrane potential fluorescence; at 22.9 µM (top of the series)
Summary of the method: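 HEK293 ACTOne cells with CNG channel (1000/well), endogenous PDE4; membrane potential dye, compounds up to 22.9 uM final. Fluorescence Ex 535/Em 590; RO 20-1724 (100 uM final) as reference.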

[26] = biological target: Guanine nucleotide-binding protein G(i) subunit alpha-1 (Homo sapiens) (UniProt P63096); assay: qHTS Assay for Inhibitors of RGS12 GoLoco Motif Activity (Green Fluorophore) (AID 879); conditions: Galphai1/FITC-RGS12 GoLoco peptide, fluorescence polarization; at 57.1 µM (top of the series);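 also: 0% = labeled peptide with Gαi1 and full inhibition = labeled peptide alone without protein; negative values mean loss of peptide binding seen as reduced polarization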
Summary of the method: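 Fluorescence polarization assay: 50 nM Gαi1 with 10 nM FITC-labeled RGS12 GoLoco peptide in 10 mM Tris pH 7.5, 150 mM NaCl, 0.1 mM GDP, 0.05% NP40, 10 min at room temperature with compound.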

[27] = qHTS Assay for Identification of Small Molecule Agonists for Thrombopoietin (TPO) Signaling Pathway (AID 917); conditions: TPO signaling pathway reporter cells, agonist qHTS, stimulated with TPO at its EC50; at 38.5 µM (top of the series); also: % is scaled to controls: 0 for no effect and ±100 for the full control effect
[28] = biological target: Muscarinic acetylcholine receptor M1 (Rattus norvegicus) (UniProt P08482); assay: qHTS Assay for Antagonists of Acetylcholine Muscarinic M1 Receptor: Measurement of IP-One Response (AID 944); also: nearly all actives have a fitted effect of over 75% in size
[29] = biological target: Pyruvate kinase PKM (Homo sapiens) (UniProt P14618); assay: qHTS Assay for Activators of Human Muscle Pyruvate Kinase (AID 954; active = well fitted curve in the direction sought with a large enough effect, not every such curve was filed as active;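 also: 0% = uninhibited enzyme and -100% = no enzyme or full thiadiazolimine inhibition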); conditions: purified human PKM1 enzyme activity; at 57.5 µM (top of the series)
Summary of the method: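 Purified human PKM2 (0.1 nM) with 0.5 mM PEP (Km) and 0.1 mM ADP in 50 mM imidazole pH 7.2, KCl, MgCl2, 1 h at room temperature; ATP formed read by coupled luciferase luminescence. Normalized to no-enzyme/110 uM thiadiazolimine inhibition; 0.3 nM enzyme column for activation.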

[30] = biological target: Alpha-galactosidase A (Homo sapiens) (UniProt P06280); assay: Counterscreen for Glucocerebrosidase Inhibitors: qHTS Assay for Human alpha-Galactosidase at pH 4.5 (AID 992); conditions: purified enzyme, fluorogenic substrate; at 76.9 µM (top of the series); also: 0% is about no effect
Summary of the method: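 Human enzyme (2 nM) with 80 uM 4-methylumbelliferyl alpha-D-galactopyranoside in 50 mM citric acid, 0.005% Tween-20, pH 4.5, 20 min at room temperature. Compounds 0.7 nM–77 uM; fluorescence Ex 365/Em 440 after pH 10 stop; AC50 from Hill fits.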

[31] = biological target: alpha-glucosidase (Oryza sativa, rice) (UniProt Q653V4); assay: Counterscreen for Glucocerebrosidase Inhibitors: qHTS Assay for Rice alpha-Glucosidase at pH 5.0 (AID 997); conditions: rice alpha-glucosidase enzyme activity; at 76.9 µM (top of the series);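 also: 0% = full activity with enzyme and -100% = basal without enzyme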
Summary of the method: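 Rice alpha-glucosidase (4 nM final) with 400 uM 4-methylumbelliferyl-alpha-D-glucopyranoside in citrate buffer pH 5.0, 20 min at room temperature, stopped at pH 10; fluorescence 365/440 nm, compounds 0.7 nM–77 uM, AC50 from Hill fits.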

[32] = Cell Proliferation Assay against the TMD8 Cell Line (AID 651645); conditions: TMD8 DLBCL cell line proliferation/viability; at 46.1 µM (top of the series);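 also: cells exposed to compound for 48 h before reading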
Summary of the method: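 Luminescent ATP read-out (CellTiter-Glo, 15 min RT) after 48 h compound exposure of log-growing TMD8 cells at 37C; percent activity scaled between DMSO as 100% and 9.2 uM bortezomib final as 0%.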

[33] = biological target: Cytochrome P450 3A4 (Homo sapiens) (UniProt P08684); assay: qHTS Assay for Activators of Cytochrome P450 3A4 (AID 885); conditions: recombinant CYP3A4, Luciferin-PPXE luminescence, 60 min; at 57.1 µM (top of the series); also: nearly all actives have a fitted effect of over 65% in size

ClP(Cl)c1ccccc1
inactive: activation [1] -4.06% | activation [2] 2.26% | activity change, negative = inhibition [3] 2.03% | activation [4] -0.842% | activity change, negative = inhibition [5] 2.2% | activation [6] -3.67% | activity, negative = inhibition [7] 10.2% | activity change, negative = inhibition [8] 3.72% | activation [9] 2.6% | activation [10] 0.0329% | max response [11] -9.65% | inhibition [12] 7.51% | activation [13] 5.61% | activation [14] 1.6% | activation [15] -0.109% | max response [16] 4.01% | activation [17] 0.765% | max response [18] -10% | max response [19] -7.99% | Potency [20] | max response [21] 1.68% | activation [22] -2.82%

CN(C(=O)Cc1ccccc1)[C@@H]1CC[C@@]2(CCCO2)C[C@H]1N1CCCC1
inactive: activity change, negative = inhibition [23] -16.3% [at 38 µM] | activity, negative = inhibition [24] 6.34% [at 38 µM] | activation (PDE inhibition) [25] 0.694% | activity, negative = inhibition [26] -11.2% | activity, positive = activation [27] -10.7% | Potency [28] | activity change, negative = inhibition [29] -14.5% | activity change, negative = inhibition [30] -0.133% | activity change, negative = inhibition [31] -1.03%

CS(=O)(=O)c1cccc(CNc2nc(Nc3ccc4c(c3)CCC(=O)N4)ncc2C(F)(F)F)c1
109%: viability (% of control) [32]

CCCCOP(=O)(OCCCC)OCCCC
inactive: activity change, positive = activation [33] -47.9% | activation [15] -2.55% | activation [22] 14.6%
